Laboratory results reported in patent publication US10952961B2, “Implants and constructs including hollow fibers” (priority 2015, dated 2021).

Assay: Saturated drug solutions in normal saline used to fill hollow fibers
Format: physicochemical

Compound: O=C(O)c1cn(C2CC2)c2cc(N3CCNCC3)c(F)cc2c1=O [ciprofloxacin]
- concentration of saturated solution: 30000 µg/mL
